A short description of this series: Water solubility of free base and salts from the salt screen.

Usually Solubility stands for the concentration that dissolves in the medium under given conditions. On to Malonate, for which the Solubility (10 mg solids per mL water) amounted to 3 µg/mL. Moreover, where the note is “salt screen”, the “Solubility (remark in words)” value is reported as “Crystalline salt, low solubility”.

The values above are taken from patent publication US11123338B2, “C-met modulator pharmaceutical compositions” (Exelixis, Inc., priority 2010, dated 2021).
